Results reported in ChEMBL document CHEMBL3994596, “Structural Basis for Potency and Promiscuity in Poly(ADP-ribose) Polymerase (PARP) and Tankyrase Inhibitors” (J Med Chem, 2017).

Protein sequences, listed by entry. Tags and fused reporters are not part of them. Lines headed by an entry give the natural chain unless they say otherwise; changes in a name come on top.
UniProt Q9UGN5: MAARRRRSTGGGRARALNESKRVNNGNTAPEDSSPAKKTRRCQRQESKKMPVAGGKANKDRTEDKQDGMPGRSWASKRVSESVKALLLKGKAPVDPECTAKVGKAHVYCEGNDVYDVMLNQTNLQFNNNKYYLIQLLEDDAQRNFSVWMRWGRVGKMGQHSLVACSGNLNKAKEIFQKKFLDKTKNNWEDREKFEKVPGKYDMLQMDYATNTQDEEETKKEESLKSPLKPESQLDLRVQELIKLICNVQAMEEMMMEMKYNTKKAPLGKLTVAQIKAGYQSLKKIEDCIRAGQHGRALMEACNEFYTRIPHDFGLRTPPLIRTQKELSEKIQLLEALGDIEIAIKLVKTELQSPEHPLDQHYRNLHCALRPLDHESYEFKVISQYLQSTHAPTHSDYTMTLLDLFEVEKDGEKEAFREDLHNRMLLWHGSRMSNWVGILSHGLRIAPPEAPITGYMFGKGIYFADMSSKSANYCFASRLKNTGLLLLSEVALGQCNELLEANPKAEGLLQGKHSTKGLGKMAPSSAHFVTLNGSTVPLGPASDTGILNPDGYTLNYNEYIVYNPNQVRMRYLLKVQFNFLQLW

Assays:
[1] = molecular target: Poly [ADP-ribose] polymerase 2 (Homo sapiens, UniProt Q9UGN5)
[2] = molecular target: T1, Poly [ADP-ribose] polymerase tankyrase-1 (Homo sapiens, UniProt O95271)
T1 sequence (O95271 whole entry): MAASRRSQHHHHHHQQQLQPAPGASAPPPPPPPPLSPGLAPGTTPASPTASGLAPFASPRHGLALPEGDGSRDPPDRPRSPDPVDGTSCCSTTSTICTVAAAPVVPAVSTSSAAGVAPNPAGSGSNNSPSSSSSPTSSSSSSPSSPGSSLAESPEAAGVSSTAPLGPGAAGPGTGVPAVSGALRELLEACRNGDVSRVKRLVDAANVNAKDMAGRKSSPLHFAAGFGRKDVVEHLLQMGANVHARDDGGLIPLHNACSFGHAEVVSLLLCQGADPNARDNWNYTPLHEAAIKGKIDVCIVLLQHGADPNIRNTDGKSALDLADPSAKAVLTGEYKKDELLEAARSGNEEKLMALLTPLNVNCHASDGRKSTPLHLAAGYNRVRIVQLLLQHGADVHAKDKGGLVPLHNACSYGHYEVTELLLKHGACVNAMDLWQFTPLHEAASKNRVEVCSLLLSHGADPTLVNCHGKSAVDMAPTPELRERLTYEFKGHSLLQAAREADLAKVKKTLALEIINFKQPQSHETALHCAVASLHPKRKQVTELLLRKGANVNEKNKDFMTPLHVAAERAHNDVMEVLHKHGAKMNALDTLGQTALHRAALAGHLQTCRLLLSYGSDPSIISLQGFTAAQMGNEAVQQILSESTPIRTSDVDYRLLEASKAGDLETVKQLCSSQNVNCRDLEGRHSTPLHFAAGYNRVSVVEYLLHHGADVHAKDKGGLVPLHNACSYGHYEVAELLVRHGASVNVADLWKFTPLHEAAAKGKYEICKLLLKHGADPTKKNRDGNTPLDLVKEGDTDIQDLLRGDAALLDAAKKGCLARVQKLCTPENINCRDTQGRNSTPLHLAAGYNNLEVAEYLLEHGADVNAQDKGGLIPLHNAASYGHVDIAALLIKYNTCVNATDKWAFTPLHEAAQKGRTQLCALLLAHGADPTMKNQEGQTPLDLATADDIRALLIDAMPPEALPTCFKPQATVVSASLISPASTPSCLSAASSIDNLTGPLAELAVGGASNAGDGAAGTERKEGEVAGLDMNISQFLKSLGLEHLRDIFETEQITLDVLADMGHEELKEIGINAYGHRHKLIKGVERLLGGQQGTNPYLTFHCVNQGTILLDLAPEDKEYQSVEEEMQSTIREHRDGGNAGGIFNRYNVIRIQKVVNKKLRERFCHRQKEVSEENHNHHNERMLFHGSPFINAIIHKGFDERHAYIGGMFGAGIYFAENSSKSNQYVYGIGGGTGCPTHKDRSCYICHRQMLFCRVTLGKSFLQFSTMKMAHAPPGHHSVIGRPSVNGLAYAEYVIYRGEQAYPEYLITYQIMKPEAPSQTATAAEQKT

SMILES | IC50 [1] [µM] | IC50 [2] [µM]
Cc1cc(N2C[C@@H](C)N[C@@H](C)C2)ncc1-c1ccc(-c2nc3c(ccn3C)c(=O)[nH]2)cc1 | 0.99 | –
NC(=O)c1cccc2cn(-c3ccc([C@@H]4CCCNC4)cc3)nc12 [NIRAPARIB] | – | 2.35
